## Binding of CDR-mutated scFvs to a peptide of the spike HR2 region

The measurements come from Engelhart et al. 2022 (doi:10.1038/s41597-022-01779-4) through the FLAb antibody collection.

The target is the same throughout: PDVDLGDISGINAS, from the HR2 region of SARS-CoV-2 spike.

Each scFv is VH, three GGGGS repeats, VL, as in the parent Ab-95, and differs from it in the CDRs of the light chain only.
VH: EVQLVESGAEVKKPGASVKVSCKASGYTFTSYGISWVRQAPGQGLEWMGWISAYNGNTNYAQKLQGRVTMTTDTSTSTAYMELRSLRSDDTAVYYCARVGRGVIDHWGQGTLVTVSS
VL: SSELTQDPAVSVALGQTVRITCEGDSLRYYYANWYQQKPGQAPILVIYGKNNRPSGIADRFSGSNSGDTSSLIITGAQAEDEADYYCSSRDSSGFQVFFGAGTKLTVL

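Phage display of a naive human antibody library on the peptide gave the parent. Library AAYL52 holds single substitutions and randomly drawn double and triple substitutions in the CDRs. The assay is AlphaSeq: two haploid yeast populations carry antibody and antigen on their surface. Binding brings cells together so that they mate, and sequencing counts the barcode pairs among the diploids. Each replicate has its own calibration line, from reference interactions of the BCL2 family. Mating was done three times.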

Substitutions are numbered in sequence along the VL above, starting at 1 (not Kabat). Affinities are written as log10 Kd with Kd in nM; a lower number is a better binder. Where no diploid with the target was found in that replicate, the entry reads "n.d.": below detection, most likely a poor binder, though not proof of it. For reference, the parent read 2.31 as the reference entry and 2.25 as a member of this library.

changes | log10 Kd (nM) by replicate | empty controls
N51C S93L | n.d. 5.25 n.d. | 3/9 (5.08)
S26P A32S S89E | 3.88 5.54 3.02 | 2/9 (3.31)
A32M R53W F98N | n.d. 4.51 n.d. | 1/9 (3.94)
Y29F S92N G94F | 3.77 n.d. n.d. | 1/9 (4.27)
R28G D91T F98R | 3.12 3.44 2.55 | 2/9 (3.76)
S26V R28I Y30R | 4.42 3.27 3.73 | 3/9 (4.23)
S26A L27C K50I | n.d. 5.54 n.d. | 0/9
G24H Y29A A32H | n.d. 5.87 n.d. | 3/9 (4.26)
G24S S89I G94V | n.d. 4.31 2.85 | 2/9 (4.03)
L27G D91L S92E | n.d. 4.93 n.d. | 3/9 (3.35)
R28Y S55Y R90G | 3.32 3.61 n.d. | 4/9 (3.96)
L27T R53F | 3.84 n.d. n.d. | 2/9 (4.11)
S26L F95Y Q96M | n.d. n.d. n.d. | 1/9 (3.16)
Y31C P54I R90G | n.d. n.d. 3.44 | 0/9
S26V S55Q R90M | 3.91 n.d. n.d. | 2/9 (3.54)
E23A G24E Y30E | 2.58 2.49 2.20 | 1/9 (3.49)
S26C S88I | 3.99 5.44 n.d. | 2/9 (4.26)
G24S A32F S55C | 4.17 n.d. n.d. | 1/9 (3.11)
E23A S55Y D91K | 4.27 n.d. 4.18 | 3/9 (3.98)
R53D S88Y D91T | 4.24 n.d. n.d. | 2/9 (4.47)
S88P G94P | 5.13 3.91 n.d. | 2/9 (4.27)
Y29D N33D S88Q | 2.80 3.48 3.58 | 1/9 (4.58)
R28W P54W F98V | n.d. n.d. n.d. | 1/9 (3.71)
N33W N51W R90T | 5.36 n.d. n.d. | 2/9 (3.97)
Y31G K50F R53T | 1.34 1.30 0.89 | 3/9 (3.79)
Y31Q N51R V97D | 3.04 n.d. 3.07 | 1/9 (3.46)
Y29I N51V S89H | 4.96 n.d. n.d. | 2/9 (4.06)
S88H S93H Q96V | 2.22 1.91 2.15 | 2/9 (3.72)
G49P R53I D91C | 3.52 3.69 3.86 | 3/9 (4.23)
N33Q N51G Q96Y | 2.85 4.47 3.10 | 3/9 (3.96)
G24N N52H G94Y | n.d. 4.71 n.d. | 2/9 (3.84)
L27V A32H G94A | 2.90 3.28 2.74 | 2/9 (4.56)
Y30F S89Q S92N | n.d. 4.40 4.73 | 3/9 (3.62)
K50H S88D F95H | n.d. n.d. n.d. | 0/9
Y29F S89W Q96T | 3.00 2.47 1.98 | 6/9 (3.62)
Y31R | 2.22 2.42 2.28 | 2/9 (4.07)
S55C S88P D91R | n.d. 3.47 n.d. | 3/9 (3.72)
A32D F95W | n.d. n.d. n.d. | 1/9 (5.34)
K50Q V97I | 3.57 2.90 4.72 | 4/9 (4.02)
S26I N51R S88L | n.d. n.d. n.d. | 2/9 (3.56)
D25L A32C R53C | 4.60 n.d. 3.99 | 2/9 (3.79)
D25H P54D S88D | 3.26 3.35 n.d. | 5/9 (4.00)
E23V L27C S93F | n.d. n.d. n.d. | 5/9 (4.41)

Extract of 3 entries:

changes,log10 Kd (nM) by replicate,empty controls
E23A G24E Y30E,2.58 2.49 2.20,1/9 (3.49)
R28W P54W F98V,n.d. n.d. n.d.,1/9 (3.71)
N51C S93L,n.d. 5.25 n.d.,3/9 (5.08)

Background: pairings of library AAYL52 with three empty control strains gave a value in 28% of cases (median 3.91, 5th percentile 2.90). Values in that range, when seen in few replicates, are hard to tell from nonspecific mating. For each scFv, signals with the empty controls are counted beside the result, with their mean in brackets.